Reference: patent US7217704B2, “LPA receptor agonists and antagonists and methods of use” (The University of Tennessee Research Foundation, priority 2003, dated 2007)

The chains behind the UniProt entries cited, without tags or fusion partners.
UniProt Q9HBW0, whole entry: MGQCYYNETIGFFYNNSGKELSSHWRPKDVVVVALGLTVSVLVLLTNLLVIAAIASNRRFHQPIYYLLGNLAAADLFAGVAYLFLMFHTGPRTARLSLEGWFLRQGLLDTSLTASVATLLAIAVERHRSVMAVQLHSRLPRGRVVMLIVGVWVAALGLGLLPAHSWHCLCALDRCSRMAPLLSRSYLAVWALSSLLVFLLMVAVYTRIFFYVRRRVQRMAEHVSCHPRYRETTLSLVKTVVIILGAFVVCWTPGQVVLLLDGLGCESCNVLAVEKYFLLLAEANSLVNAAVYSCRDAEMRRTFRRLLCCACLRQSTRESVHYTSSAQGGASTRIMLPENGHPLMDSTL
UniProt Q9UBY5, whole entry: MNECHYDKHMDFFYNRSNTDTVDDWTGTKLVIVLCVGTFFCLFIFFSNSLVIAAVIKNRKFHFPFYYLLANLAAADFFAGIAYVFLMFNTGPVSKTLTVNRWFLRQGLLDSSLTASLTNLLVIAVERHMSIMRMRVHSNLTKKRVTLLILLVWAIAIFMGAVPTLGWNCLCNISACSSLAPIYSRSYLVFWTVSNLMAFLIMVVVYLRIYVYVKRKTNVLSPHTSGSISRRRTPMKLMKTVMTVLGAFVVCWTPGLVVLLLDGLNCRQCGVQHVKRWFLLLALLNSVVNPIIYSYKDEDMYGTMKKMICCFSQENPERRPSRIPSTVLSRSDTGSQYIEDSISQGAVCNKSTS
UniProt Q92633, whole entry: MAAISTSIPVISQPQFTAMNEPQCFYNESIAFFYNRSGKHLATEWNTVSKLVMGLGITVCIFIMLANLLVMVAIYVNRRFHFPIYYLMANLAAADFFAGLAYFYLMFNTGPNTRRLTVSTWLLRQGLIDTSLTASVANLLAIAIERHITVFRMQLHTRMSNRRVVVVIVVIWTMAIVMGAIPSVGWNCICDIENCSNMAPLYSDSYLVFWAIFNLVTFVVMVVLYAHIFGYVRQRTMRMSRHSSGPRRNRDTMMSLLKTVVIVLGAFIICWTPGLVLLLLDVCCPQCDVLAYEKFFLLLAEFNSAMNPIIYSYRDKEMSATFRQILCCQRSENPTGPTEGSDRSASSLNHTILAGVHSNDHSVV

How the values were obtained:
[1] = target: LPA2 (Homo sapiens, UniProt Q9HBW0); assay: Ca2+ transients (agonism / inhibition of LPA response) in RH7777 cells stably expressing LPA2; assay type: cell-based
[2] = target: LPA3 (Homo sapiens, UniProt Q9UBY5); assay: Ca2+ transients (agonism / inhibition of LPA response) in RH7777 cells stably expressing LPA3; assay type: cell-based
[3] = target: LPA1 (Homo sapiens, UniProt Q92633); assay: Ca2+ transients (agonism / inhibition of LPA response) in RH7777 cells stably expressing LPA1; assay type: cell-based; settings: read-out: LPA1 IC50, inhibition of LPA-induced Ca2+ transients
[4] = system: PC-3 cells; assay: Ca2+ transients in PC-3 cells endogenously expressing LPA1-3; assay type: cell-based, human; settings: maximal efficacy of the drug/maximal efficacy of LPA 18:1

## CCCCCCCCCCCCCCCC(=O)N[C@@H](COP(=O)(O)O)C(=O)O
[1]; Ca2+ transients
  effect at LPA2 in words: weak agonist
[1]; read-out: LPA2 EC50, induction of Ca2+ transients
  EC50: > 10 µM
[1]; read-out: LPA2 IC50, inhibition of LPA-induced Ca2+ transients
  IC50: > 30 µM
[2]; maximal efficacy of the drug/maximal efficacy of LPA 18:1
  LPA3 (Emax): (100) %
[2]; read-out: LPA3 IC50, inhibition of LPA-induced Ca2+ transients, RH7777 cells expressing LPA3
  IC50: > 30 µM
[3]
  IC50: > 30 µM
[4]
  PC-3 (Emax): −(42) %
